Our source for the EC50 values is patent US8710045B2, “Agents for preventing and treating disorders involving modulation of the ryanodine receptors” (The Trustees of Columbia University in the City of New York, priority 2004, dated 2014).

Protein sequences, listed by entry. Tags and fused reporters are not part of them.
UniProt Q92736, whole entry: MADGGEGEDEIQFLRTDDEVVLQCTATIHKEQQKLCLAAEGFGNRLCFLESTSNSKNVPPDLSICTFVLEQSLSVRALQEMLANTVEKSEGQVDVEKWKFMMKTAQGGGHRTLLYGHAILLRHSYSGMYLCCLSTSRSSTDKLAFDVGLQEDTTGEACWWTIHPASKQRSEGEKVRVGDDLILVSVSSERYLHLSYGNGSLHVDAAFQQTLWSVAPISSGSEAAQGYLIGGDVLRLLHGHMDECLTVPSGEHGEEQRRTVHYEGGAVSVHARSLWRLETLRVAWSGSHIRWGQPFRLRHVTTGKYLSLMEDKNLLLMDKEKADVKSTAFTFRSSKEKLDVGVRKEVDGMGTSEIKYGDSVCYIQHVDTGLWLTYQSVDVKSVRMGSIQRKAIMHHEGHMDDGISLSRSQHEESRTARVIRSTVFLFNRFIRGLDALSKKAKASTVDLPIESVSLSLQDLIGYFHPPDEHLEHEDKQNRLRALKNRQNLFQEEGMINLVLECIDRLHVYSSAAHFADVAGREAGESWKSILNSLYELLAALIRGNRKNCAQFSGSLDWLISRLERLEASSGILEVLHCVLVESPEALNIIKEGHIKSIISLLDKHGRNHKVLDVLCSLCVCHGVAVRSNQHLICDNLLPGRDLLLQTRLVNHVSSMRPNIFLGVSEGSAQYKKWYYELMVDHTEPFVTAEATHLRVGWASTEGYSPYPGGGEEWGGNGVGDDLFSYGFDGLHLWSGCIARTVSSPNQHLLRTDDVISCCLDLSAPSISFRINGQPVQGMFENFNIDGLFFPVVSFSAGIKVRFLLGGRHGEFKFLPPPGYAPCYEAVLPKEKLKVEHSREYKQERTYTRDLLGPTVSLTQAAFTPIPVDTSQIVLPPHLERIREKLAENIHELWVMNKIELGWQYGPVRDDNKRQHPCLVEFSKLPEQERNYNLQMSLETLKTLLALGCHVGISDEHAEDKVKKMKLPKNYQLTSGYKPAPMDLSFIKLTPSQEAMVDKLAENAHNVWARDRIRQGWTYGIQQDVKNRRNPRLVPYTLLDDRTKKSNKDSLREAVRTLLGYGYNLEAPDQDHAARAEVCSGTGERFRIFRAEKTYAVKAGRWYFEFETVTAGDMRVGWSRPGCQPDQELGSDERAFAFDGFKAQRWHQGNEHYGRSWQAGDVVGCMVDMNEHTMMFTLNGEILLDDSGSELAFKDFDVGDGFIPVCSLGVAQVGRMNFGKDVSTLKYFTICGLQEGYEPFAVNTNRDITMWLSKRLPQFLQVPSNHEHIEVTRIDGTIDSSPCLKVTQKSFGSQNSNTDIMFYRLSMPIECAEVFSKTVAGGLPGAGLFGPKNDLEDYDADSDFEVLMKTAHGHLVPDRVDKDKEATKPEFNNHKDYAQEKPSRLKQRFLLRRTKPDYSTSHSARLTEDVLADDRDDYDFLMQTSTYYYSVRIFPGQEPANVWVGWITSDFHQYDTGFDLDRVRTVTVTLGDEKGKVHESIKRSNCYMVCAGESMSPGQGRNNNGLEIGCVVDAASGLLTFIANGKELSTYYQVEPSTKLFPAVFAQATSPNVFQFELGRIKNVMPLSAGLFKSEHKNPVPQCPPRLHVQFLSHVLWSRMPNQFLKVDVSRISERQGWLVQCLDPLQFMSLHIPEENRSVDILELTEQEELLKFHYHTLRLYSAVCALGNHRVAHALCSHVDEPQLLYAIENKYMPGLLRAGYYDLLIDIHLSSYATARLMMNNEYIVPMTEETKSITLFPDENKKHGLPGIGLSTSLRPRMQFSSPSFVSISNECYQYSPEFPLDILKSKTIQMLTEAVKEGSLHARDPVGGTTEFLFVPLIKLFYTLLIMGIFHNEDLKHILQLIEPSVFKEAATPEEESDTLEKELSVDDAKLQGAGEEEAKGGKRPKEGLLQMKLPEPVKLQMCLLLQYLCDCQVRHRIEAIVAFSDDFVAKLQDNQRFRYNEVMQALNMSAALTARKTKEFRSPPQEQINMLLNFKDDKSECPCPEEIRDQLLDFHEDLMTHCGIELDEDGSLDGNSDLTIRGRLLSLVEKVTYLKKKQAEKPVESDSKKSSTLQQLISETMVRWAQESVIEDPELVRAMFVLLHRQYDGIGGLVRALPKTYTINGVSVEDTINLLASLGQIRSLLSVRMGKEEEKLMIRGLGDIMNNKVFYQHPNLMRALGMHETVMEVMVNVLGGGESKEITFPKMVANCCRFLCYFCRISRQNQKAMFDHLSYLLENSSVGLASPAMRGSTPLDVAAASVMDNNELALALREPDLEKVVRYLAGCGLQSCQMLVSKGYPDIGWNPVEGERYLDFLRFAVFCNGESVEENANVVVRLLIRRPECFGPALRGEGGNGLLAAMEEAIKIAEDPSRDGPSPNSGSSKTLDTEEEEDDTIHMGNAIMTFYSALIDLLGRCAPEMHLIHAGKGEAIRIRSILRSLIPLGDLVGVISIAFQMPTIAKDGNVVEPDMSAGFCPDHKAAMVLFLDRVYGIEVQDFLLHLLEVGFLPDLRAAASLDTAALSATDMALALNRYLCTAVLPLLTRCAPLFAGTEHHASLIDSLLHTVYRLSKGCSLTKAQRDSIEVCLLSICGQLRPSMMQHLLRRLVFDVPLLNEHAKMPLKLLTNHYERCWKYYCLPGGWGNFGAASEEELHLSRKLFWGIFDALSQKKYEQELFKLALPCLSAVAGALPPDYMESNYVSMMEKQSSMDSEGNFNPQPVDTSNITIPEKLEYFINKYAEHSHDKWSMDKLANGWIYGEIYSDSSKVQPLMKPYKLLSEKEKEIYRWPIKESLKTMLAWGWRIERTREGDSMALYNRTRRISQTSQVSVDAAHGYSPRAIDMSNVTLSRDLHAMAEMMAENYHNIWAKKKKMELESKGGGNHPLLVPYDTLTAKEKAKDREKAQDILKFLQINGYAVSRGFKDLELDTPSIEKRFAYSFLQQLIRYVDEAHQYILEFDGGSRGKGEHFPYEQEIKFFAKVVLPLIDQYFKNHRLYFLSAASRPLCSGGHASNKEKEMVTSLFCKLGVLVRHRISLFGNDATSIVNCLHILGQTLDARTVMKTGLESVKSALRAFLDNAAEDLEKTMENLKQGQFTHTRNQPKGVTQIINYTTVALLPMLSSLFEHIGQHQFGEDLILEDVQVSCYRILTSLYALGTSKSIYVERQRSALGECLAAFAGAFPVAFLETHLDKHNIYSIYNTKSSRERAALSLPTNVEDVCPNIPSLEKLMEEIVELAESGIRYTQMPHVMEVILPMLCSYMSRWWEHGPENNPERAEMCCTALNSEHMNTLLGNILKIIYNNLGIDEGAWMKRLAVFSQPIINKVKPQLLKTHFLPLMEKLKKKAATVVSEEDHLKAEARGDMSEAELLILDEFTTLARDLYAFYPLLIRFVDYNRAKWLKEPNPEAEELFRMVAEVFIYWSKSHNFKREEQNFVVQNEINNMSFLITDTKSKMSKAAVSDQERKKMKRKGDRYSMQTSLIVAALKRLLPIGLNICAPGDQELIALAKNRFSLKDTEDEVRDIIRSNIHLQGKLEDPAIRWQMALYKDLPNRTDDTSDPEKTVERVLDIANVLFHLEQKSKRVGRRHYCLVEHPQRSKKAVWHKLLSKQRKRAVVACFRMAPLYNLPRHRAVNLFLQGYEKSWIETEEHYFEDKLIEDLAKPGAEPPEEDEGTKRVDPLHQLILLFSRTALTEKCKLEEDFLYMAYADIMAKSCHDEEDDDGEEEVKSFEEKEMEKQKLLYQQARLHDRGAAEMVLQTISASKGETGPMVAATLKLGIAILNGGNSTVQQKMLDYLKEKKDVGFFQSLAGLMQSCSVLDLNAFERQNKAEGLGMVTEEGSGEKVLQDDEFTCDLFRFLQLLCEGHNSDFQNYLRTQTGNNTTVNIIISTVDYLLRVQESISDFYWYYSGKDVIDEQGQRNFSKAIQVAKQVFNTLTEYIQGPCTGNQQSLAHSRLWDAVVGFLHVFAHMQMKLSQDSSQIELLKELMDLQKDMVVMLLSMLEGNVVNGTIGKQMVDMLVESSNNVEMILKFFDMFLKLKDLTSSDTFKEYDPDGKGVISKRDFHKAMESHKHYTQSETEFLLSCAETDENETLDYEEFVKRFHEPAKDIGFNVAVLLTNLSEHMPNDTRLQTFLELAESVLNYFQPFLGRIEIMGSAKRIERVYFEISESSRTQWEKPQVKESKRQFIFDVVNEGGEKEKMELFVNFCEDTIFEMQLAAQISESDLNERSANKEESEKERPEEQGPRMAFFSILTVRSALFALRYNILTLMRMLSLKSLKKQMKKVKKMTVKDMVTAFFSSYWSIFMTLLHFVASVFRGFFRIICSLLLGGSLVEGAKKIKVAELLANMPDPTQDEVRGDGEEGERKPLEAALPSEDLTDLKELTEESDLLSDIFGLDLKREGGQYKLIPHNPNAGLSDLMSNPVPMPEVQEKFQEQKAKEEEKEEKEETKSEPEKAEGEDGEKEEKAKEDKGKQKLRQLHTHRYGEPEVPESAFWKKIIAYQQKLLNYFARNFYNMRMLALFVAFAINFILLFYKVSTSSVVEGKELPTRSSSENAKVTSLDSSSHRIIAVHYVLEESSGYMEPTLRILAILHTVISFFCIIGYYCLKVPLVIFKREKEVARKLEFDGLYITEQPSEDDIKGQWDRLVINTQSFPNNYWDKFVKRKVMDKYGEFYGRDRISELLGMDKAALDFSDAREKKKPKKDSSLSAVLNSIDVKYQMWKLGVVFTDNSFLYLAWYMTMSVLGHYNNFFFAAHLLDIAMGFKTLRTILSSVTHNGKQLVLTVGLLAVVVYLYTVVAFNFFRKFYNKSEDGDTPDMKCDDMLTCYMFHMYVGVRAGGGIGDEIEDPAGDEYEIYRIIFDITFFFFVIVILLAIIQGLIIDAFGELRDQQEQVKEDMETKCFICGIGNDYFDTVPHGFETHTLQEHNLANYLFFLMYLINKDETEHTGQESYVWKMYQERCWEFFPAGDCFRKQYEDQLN

Each structure is given as a SMILES string. pEC50: −log10 of the molar value.

The target of this test is T1, PKA-phosphorylated RyR2 (Homo sapiens, UniProt Q92736).
T1 construct: from tissue
Put plainly: FKBP12.6 rebinding assay: FKBP12.6 binding to PKA-phosphorylated RyR2 in cardiac SR. As to the method: Samples are centrifuged at 95,000 g for 10 min and the pellets are washed three times in 0.2 ml imidazole buffer. The final pellets are pooled and resuspended in imidazole buffer (final concentration≈10 μg/μl). […] Samples then are centrifuged at 100,000 g for 10 minutes and pellets washed 3 times with imidizol buffer. […] Immunoblots are developed using an anti-FKBP antibody (1:3,000 dilution). […] The intracellular solution contains (in mM): CsCl, 60; CaCl2, 1; EGTA, 11; MgCl2, 1; K2ATP, 5; HEPES, 10; aspartic acid, 50; pH 7.4 (CsOH). Under these conditions, it is expected that the measured current was carried by Ba^2+ primarily through L-type calcium channels which is referred to as ICa,L. Drugs are applied by a local solution changer and reach the cell membrane within 1 s.
The FKBP12.6 rebinding assay described above is used to determine the amount of FKBP12.6 binding to PKA-phosphorylated RyR2 at various concentrations (0.5-1000 nM) of the compounds shown. EC50 values are calculated using Michaelis-Menten curve fitting.
The EC50 values are calculated using Michaelis-Menten curve fitting.

In the case of `COc1ccc2c(c1)CN(C)CCS2` [S107], the pEC50 is 6.72.

One may read the pEC50 as −log10 of the EC50, conventionally taken in molar units. Low values mean a large EC50, high ones a small EC50.
